Data: patent US8575186B2, “Epiminocycloalkyl[b] indole derivatives as serotonin sub-type 6 (5-HT6) modulators and uses thereof” (Albany Molecular Research, Inc., priority 2009, dated 2013)
Counter-ions that a name gives are not always drawn.

By UniProt entry, the sequences of proteins in these tests, tags left out.
UniProt P50406, whole entry: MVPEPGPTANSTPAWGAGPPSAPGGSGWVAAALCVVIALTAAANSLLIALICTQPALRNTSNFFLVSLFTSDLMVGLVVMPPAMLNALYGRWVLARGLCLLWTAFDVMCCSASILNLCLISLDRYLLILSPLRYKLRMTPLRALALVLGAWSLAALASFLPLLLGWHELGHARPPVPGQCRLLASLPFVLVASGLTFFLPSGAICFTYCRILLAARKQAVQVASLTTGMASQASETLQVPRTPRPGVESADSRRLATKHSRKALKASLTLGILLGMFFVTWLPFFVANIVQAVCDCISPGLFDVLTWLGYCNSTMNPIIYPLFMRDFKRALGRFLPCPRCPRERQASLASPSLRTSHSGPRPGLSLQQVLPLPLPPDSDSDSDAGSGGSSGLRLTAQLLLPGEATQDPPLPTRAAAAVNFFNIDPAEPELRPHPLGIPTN

target: human 5-HT6 receptor (Homo sapiens (Human), UniProt P50406); assay: radioligand binding assay (SPA format), [N-methyl-3H]-LSD; details: read-out: human 5HT6 Ki

In order of falling Ki:
1. Cl.Cn1c2c(c3cc(S(=O)(=O)c4ccsc4)ccc31)C1CCC(C2)N1 (stereo not shown) [Example 56, 2-(3-Thienyl)sulfonyl-5-methyl-5,6,7,8,9,10-hexahydro-7,10-epiminocyclohepta[b]indole hydrochloride]  51 nM
2. Cn1c2c(c3cc(S(=O)(=O)c4cccc(-c5ccncc5)c4)ccc31)C1CCC(C2)N1 (stereo not shown) [Example 122]  48 nM
3. Cn1c2c(c3cc(S(=O)(=O)c4ccc(C(F)(F)F)cc4)ccc31)C1CCC(C2)N1 (stereo not shown) [Example 176]  46 nM
4. Cl.Cn1c2c(c3cc(S(=O)(=O)c4ccc5ccccc5c4)ccc31)C1CCC(C2)N1 (stereo not shown) [Example 50, 2-(2-Napthyl)sulfonyl-5-methyl-5,6,7,8,9,10-hexahydro-7,10-epiminocyclohepta[b]indole hydrochloride]  37 nM
5. Cl.Cn1c2c(c3cc(S(=O)(=O)c4cccc(C#N)c4)ccc31)C1CCC(C2)N1 (stereo not shown) [Example 43, 2-(3-Cyanophenyl)sulfonyl-5-methyl-5,6,7,8,9,10-hexahydro-7,10-epiminocyclohepta[b]indole hydrochloride]  35 nM
6. COCCOc1cc(S(=O)(=O)c2ccccc2)cc2c3c(n(C)c12)CC1CCC3N1 (stereo not shown) [Example 236]  18 nM
7. COc1ccc2c(ccn2S(=O)(=O)c2ccc3c(c2)c2c(n3C)CC3CCC2N3)c1.Cl (stereo not shown) [Example 66, 2-[1-(5-Methoxy)-indole]sulfonyl-5-methyl-5,6,7,8,9,10-hexahydro-7,10-epiminocyclohepta[b]indole hydrochloride]  18 nM
8. Cn1c2c(c3cc(S(=O)(=O)n4ccc5ccncc54)ccc31)C1CCC(C2)N1 (stereo not shown) [Example 108]  15 nM
9. CCn1ccc2cc(S(=O)(=O)c3ccc4c(c3)c3c(n4C)CC4CCC3N4)ccc21 (stereo not shown) [Example 173]  15 nM
10. CN(C)c1cccc(S(=O)(=O)c2ccc3c(c2)c2c(n3C)CC3CCC2N3)c1.Cl (stereo not shown) [Example 45, 2-[(3-N,N-Dimethylamino)phenyl]sulfonyl-5-methyl-5,6,7,8,9,10-hexahydro-7,10-epiminocyclohepta[b]indole hydrochloride]  14 nM
11. CC(C)Oc1cc(S(=O)(=O)c2ccccc2)cc2c3c(n(C)c12)CC1CCC3N1.Cl (stereo not shown) [Example 85, 2-Phenylsulfonyl-4-isopropoxy-5-methyl-5,6,7,8,9,10-hexahydro-7,10-epiminocyclohepta[b]indole hydrochloride]  14 nM
12. Cl.Cn1c2c(c3cc(S(=O)(=O)c4ccc(N)cc4)ccc31)C1CCC(C2)N1 (stereo not shown) [Example 53, 2-(4-Aminophenyl)sulfonyl-5-methyl-5,6,7,8,9,10-hexahydro-7,10-epiminocyclohepta[b]indole hydrochloride]  13 nM
13. COCCOc1cc(S(=O)(=O)c2ccccc2)cc2c3c(n(C)c12)CC1CCC3N1 (stereo not shown) [Example 152]  9.2 nM
14. Cc1cc(S(=O)(=O)c2cccc(F)c2)cc2c3c(n(C)c12)CC1CCC3N1.Cl (stereo not shown) [Example 72, 2-(3-Fluorophenyl)sulfonyl-4,5-dimethyl-5,6,7,8,9,10-hexahydro-7,10-epiminocyclohepta[b]indole hydrochloride]  8.1 nM
15. Cc1cccc(S(=O)(=O)c2cc(C)c3c(c2)c2c(n3C)CC3CCC2N3)c1.Cl (stereo not shown) [Example 74, 2-(3-Methyl-phenyl)sulfonyl-4,5-dimethyl-5,6,7,8,9,10-hexahydro-7,10-epiminocyclohepta[b]indole hydrochloride]  7.1 nM
16. CCn1ccc2cc(S(=O)(=O)c3ccc4c(c3)c3c(n4C)CC4CCC3N4)ccc21 (stereo not shown) [Example 118]  5.8 nM
17. CCn1ccc2cc(S(=O)(=O)c3ccc4c(c3)c3c(n4C)CC4CCC3N4)ccc21 (stereo not shown) [Example 174]  5.1 nM
18. COc1cc(S(=O)(=O)c2ccccc2)cc2c3c(n(C)c12)CC1CCC3N1 (stereo not shown) [Example 213]  4.8 nM
19. Cn1c2c(c3cc(S(=O)(=O)c4ccccc4)cc(O)c31)C1CCC(C2)N1 (stereo not shown) [Example 204]  4.8 nM
20. COc1cc(S(=O)(=O)c2ccccc2F)cc2c3c(n(C)c12)CC1CCC3N1 (stereo not shown) [Example 217]  4.7 nM
21. Cn1c2c(c3cc(S(=O)(=O)c4cccc(C(F)(F)F)c4)ccc31)C1CCC(C2)N1 (stereo not shown) [Example 160]  4.5 nM
22. Cl.Cn1c2c(c3cc(S(=O)(=O)c4cccc(OC(F)(F)F)c4)ccc31)C1CCC(C2)N1 (stereo not shown) [Example 39, 2-(3-Trifluoromethoxyphenyl)sulfonyl-5-methyl-5,6,7,8,9,10-hexahydro-7,10-epiminocyclohepta[b]indole hydrochloride]  3.8 nM
23. Cn1c2c(c3cc(S(=O)(=O)c4cncc5ccccc45)ccc31)C1CCC(C2)N1 (stereo not shown) [Example 179]  3.7 nM
24. Cn1c2c(c3cc(S(=O)(=O)c4cncc5ccccc45)ccc31)C1CCC(C2)N1 (stereo not shown) [Example 130]  3.6 nM
25. Cn1c2c(c3cc(S(=O)(=O)c4ccccc4)cc(O)c31)C1CCC(C2)N1 (stereo not shown) [Example 143]  3.4 nM
26. Cc1cc(S(=O)(=O)c2cccc(Cl)c2)cc2c3c(n(C)c12)CC1CCC3N1.Cl (stereo not shown) [Example 73, 2-(3-Chloro-phenyl)sulfonyl-4,5-dimethyl-5,6,7,8,9,10-hexahydro-7,10-epiminocyclohepta[b]indole hydrochloride]  3 nM
27. Cn1c2c(c3cc(S(=O)(=O)c4ccccc4)cc(O)c31)C1CCC(C2)N1 (stereo not shown) [Example 203]  2.9 nM
28. Cn1c2c(c3cc(S(=O)(=O)n4ccc5cc(F)ccc54)ccc31)C1CCC(C2)N1 (stereo not shown) [Example 191]  1.9 nM
29. Cn1c2c(c3cc(S(=O)(=O)c4cccc(F)c4)cc(O)c31)C1CCC(C2)N1 (stereo not shown) [Example 205]  1.8 nM
30. Cc1cc(S(=O)(=O)n2ccc3ccccc32)cc2c3c(n(C)c12)CC1CCC3N1 (stereo not shown) [Example 229]  1.8 nM
31. COc1cc(S(=O)(=O)c2cccc(Cl)c2)cc2c3c(n(C)c12)CC1CCC3N1 (stereo not shown) [Example 219]  1.7 nM
32. Cn1c2c(c3cc(S(=O)(=O)c4cccc(F)c4)cc(O)c31)C1CCC(C2)N1 (stereo not shown) [Example 206]  1.6 nM
33. Cn1c2c(c3cc(S(=O)(=O)c4cccc(C(F)(F)F)c4)ccc31)C1CCC(C2)N1 (stereo not shown) [Example 159]  1.4 nM
34. COc1cc(S(=O)(=O)n2cc(C)c3ccccc32)cc2c3c(n(C)c12)CC1CCC3N1 (stereo not shown) [Example 230]  1.3 nM
35. Cn1c2c(c3cc(S(=O)(=O)n4ccc5ccccc54)ccc31)C1CCC(C2)N1 (stereo not shown) [Example 189]  1.2 nM
36. Cn1c2c(c3cc(S(=O)(=O)c4c[nH]c5ccccc45)ccc31)C1CCC(C2)N1 (stereo not shown) [Example 163]  1.2 nM
37. Cn1c2c(c3cc(S(=O)(=O)c4cccc5[nH]ccc45)ccc31)C1CCC(C2)N1 (stereo not shown) [Example 100]  1.2 nM
38. Cn1c2c(c3cc(S(=O)(=O)n4ccc5ccc(F)cc54)ccc31)C1CCC(C2)N1 (stereo not shown) [Example 187]  1.1 nM
39. Cn1c2c(c3cc(S(=O)(=O)n4ccc5cc(F)ccc54)ccc31)C1CCC(C2)N1 (stereo not shown) [Example 192]  1.1 nM
40. Cn1c2c(c3cc(S(=O)(=O)c4cccc(Cl)c4)cc(O)c31)C1CCC(C2)N1 (stereo not shown) [Example 207]  0.91 nM
41. COc1cc(S(=O)(=O)n2ccc3ccc(F)cc32)cc2c3c(n(C)c12)CC1CCC3N1 (stereo not shown) [Example 238]  0.85 nM
42. CCn1cc(S(=O)(=O)c2ccc3c(c2)c2c(n3C)CC3CCC2N3)c2ccccc21 (stereo not shown) [Example 109]  0.72 nM
43. Cn1c2c(c3cc(S(=O)(=O)c4cccc(Cl)c4)cc(O)c31)C1CCC(C2)N1 (stereo not shown) [Example 208]  0.69 nM
44. Cn1c2c(c3cc(S(=O)(=O)n4ccc5ccccc54)ccc31)C1CCC(C2)N1 (stereo not shown) [Example 190]  0.68 nM
45. COc1cc(S(=O)(=O)c2ccccc2)cc2c3c(n(C)c12)CC1CCC3N1C (stereo not shown) [Example 227]  0.68 nM
46. COc1cc(S(=O)(=O)c2ccccc2)cc2c3c(n(C)c12)CC1CCC3N1 (stereo not shown) [Example 212]  0.57 nM
47. COc1cc(S(=O)(=O)c2cccc(Cl)c2)cc2c3c(n(C)c12)CC1CCC3N1 (stereo not shown) [Example 220]  0.5 nM
48. COc1cc(S(=O)(=O)c2ccccc2F)cc2c3c(n(C)c12)CC1CCC3N1 (stereo not shown) [Example 218]  0.46 nM
49. Cn1c2c(c3cc(S(=O)(=O)c4ccc5[nH]ccc5c4)ccc31)C1CCC(C2)N1 (stereo not shown) [Example 161]  0.37 nM
50. COc1cc(S(=O)(=O)n2cc(C)c3ccccc32)cc2c3c(n(C)c12)CC1CCC3N1 (stereo not shown) [Example 231]  0.31 nM
51. Cn1c2c(c3cc(S(=O)(=O)c4ccc5[nH]ccc5c4)ccc31)C1CCC(C2)N1 (stereo not shown) [Example 162]  0.28 nM

same assay, conditions: read-out: human 5HT6 Ki; human 5-HT6 receptor membranes, 10 nM [3H]-LSD

`Cn1c2c(c3cc(S(=O)(=O)c4ccc(C(F)(F)F)cc4)ccc31)C1CCC(C2)N1` (stereo not shown) [Example 175] gave a Ki of 151 nM.

same assay, conditions: read-out: human 5HT6 Ki; human 5-HT6 receptor membranes, 10 nM [3H]-LSD; hydrochloride

With `Cl.Cn1c2c(c3cc(S(=O)(=O)c4ccc(C(F)(F)F)cc4)ccc31)C1CCC(C2)N1` (stereo not shown) [Example 29, 2-(4-Trifluoromethylphenyl)sulfonyl-5-methyl-5,6,7,8,9,10-hexahydro-7,10-epiminocyclohepta[b]indole hydrochloride] the Ki was 136 nM.

same assay, conditions: read-out: human 5HT6 Ki; hydrochloride

In order of rising Ki:
1. Cn1c2c(c3cc(S(=O)(=O)n4ccc5ccc(F)cc54)ccc31)C1CCC(C2)N1 (stereo not shown) [Example 65, 2-[1-(6-fluoro)-indole]sulfonyl-5-methyl-5,6,7,8,9,10-hexahydro-7,10-epiminocyclohepta[b]indole hydrochloride]  0.59 nM
2. Cn1c2c(c3cc(S(=O)(=O)n4ccc5ccccc54)ccc31)C1CCC(C2)N1 (stereo not shown) [Example 62, 2-(1-indole)sulfonyl-5-methyl-5,6,7,8,9,10-hexahydro-7,10-epiminocyclohepta[b]indole hydrochloride]  0.85 nM
3. COc1cc(S(=O)(=O)c2ccccc2)cc2c3c(n(C)c12)CC1CCC3N1.Cl (stereo not shown) [Example 83, 2-Phenylsulfonyl-4-methoxy-5-methyl-5,6,7,8,9,10-hexahydro-7,10-epiminocyclohepta[b]indole hydrochloride]  0.96 nM
4. Cl.Cn1c2c(c3cc(S(=O)(=O)n4ccc5cc(F)ccc54)ccc31)C1CCC(C2)N1 (stereo not shown) [Example 63, 2-[1-(5-Fluoro)-indole]sulfonyl-5-methyl-5,6,7,8,9,10-hexahydro-7,10-epiminocyclohepta[b]indole hydrochloride]  1.43 nM
5. Cn1c2c(c3cc(S(=O)(=O)c4cccc(C(F)(F)F)c4)ccc31)C1CCC(C2)N1 (stereo not shown) [Example 38, 2-(3-Trifluoromethylphenyl)sulfonyl-5-methyl-5,6,7,8,9,10-hexahydro-7,10-epiminocyclohepta[b]indole hydrochloride]  2.1 nM
